## Binding of CDR-mutated scFvs to a peptide of the spike HR2 region

Source: Li et al. 2023 (doi:10.1038/s41467-023-39022-2), MIT Lincoln Laboratory and A-Alpha Bio; data file from the FLAb repository.

Antigen: PDVDLGDISGINAS, a 14-residue peptide of the SARS-CoV-2 spike HR2 region.

Ab-14 is the parent antibody, in scFv form: VH, then three GGGGS repeats, then VL. The heavy chain is unchanged in all variants.
VH: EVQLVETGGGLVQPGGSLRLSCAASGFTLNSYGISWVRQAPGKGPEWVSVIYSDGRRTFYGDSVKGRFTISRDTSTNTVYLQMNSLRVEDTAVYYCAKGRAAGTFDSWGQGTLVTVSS
VL: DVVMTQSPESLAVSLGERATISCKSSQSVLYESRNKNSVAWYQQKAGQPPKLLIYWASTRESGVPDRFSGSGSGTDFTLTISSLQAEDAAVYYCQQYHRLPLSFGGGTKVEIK

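Phage display of a naive human antibody library on the peptide gave the parent. These sequences belong to a second round, designed from the earlier measurements on random variants of the parent. Their group label is 14L_GP_HC (GP: Gaussian process model; HC: hill climbing; a sequence that several methods proposed may carry one label only). Affinity was read by AlphaSeq, a pooled yeast mating assay with surface-displayed partners. Mating (16 h, 30 °C) was followed by selection of diploids and sequencing of their barcodes. Scores were corrected for input abundance and mapped to Kd with protein pairs of known affinity run in the same pool. The assay was run in six technical replicates.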

Variants are written as CDR1, CDR2 and CDR3 of the light chain (limits as in the source). Parent: KSSQSVLYESRNKNSVA, WASTRES, QQYHRLPLS.
Values are log10 of the apparent Kd in nM; lower means stronger binding.
Where no diploid with the target was found in that replicate, the entry reads "nd": below detection, most likely a poor binder, though not proof of it.
Background: pairings of all light chain designs with three empty control strains gave a value in 4% of cases (median 2.64, 5th percentile 1.59). Values in that range, when seen in few replicates, are hard to tell from nonspecific mating. Also given: how often the same scFv was detected with the empty control strains, with their mean in brackets.

CDR-L1	CDR-L2	CDR-L3	replicates, log10 nM	signal with controls
KSSISYLYESRNKNSVA	AASTRES	QQYHRLPLS	nd / nd / nd / nd / nd / nd	0/18
KLRQSTLYESRNKNSVA	GASTRES	QQYHRLPLS	-0.39 / -0.38 / -0.24 / -0.52 / -0.24 / -0.03	1/18 (2.06)
KQSQSVLYESRNKNSVA	DASTRLS	QQYHRLPLS	-0.06 / -0.08 / -0.13 / -0.21 / 0.08 / 0.02	0/18
KQSQSILGESRNKNSVA	DASTRES	QQYHRLPLS	0.69 / 0.13 / 0.37 / 0.20 / 0.21 / 0.45	0/18
KSSWSFLYESRNKNSVA	EASTRES	QQYHRLPLS	0.52 / 0.41 / 0.35 / 0.26 / 0.25 / 0.58	2/18 (2.64)
HQSPSVLYESRNKNSVA	EGSTREV	QQYHRLPLS	-0.37 / -0.26 / -0.30 / -0.90 / -0.37 / -0.40	0/18
KWPQSVLYESRNKNSVA	HASTRED	QSYHRLPLS	0.55 / 0.35 / 0.35 / 0.23 / 0.24 / 0.81	0/18
KSYPSYLYESRNKNSVA	QASTRES	QQYHRLPLS	0.60 / 0.31 / 0.56 / 0.56 / 0.17 / 0.80	0/18
KFSDSVLLESRMKNSVA	NASTRES	QQYHRLPLS	0.01 / -0.16 / -0.09 / -0.19 / -0.08 / -0.05	0/18
KSGQGGLYESRNKNSVA	RASTRES	QQYHRLPLS	0.40 / 0.43 / 0.67 / 0.44 / -0.03 / 0.36	0/18
KSSPSVLFESRNKNSVA	DASTRSS	QQYHRLPLS	-0.06 / -0.11 / -0.07 / -0.05 / -0.13 / 0.00	0/18
KLSQSVLYESRTKNGVA	NASTRES	QQYHRLPLS	-0.42 / -0.68 / -0.36 / -0.63 / -0.64 / -0.43	0/18
KCLQSVLYESRNKNSVA	HASTRED	QQYGRLPLS	0.32 / 0.65 / 0.17 / 0.29 / 0.36 / 0.51	0/18
KSSQSVAMESRNDNSVA	DASTRES	QQYHRLPLS	0.37 / -0.15 / 0.40 / -0.18 / -0.14 / 0.14	0/18
KSSWSWLYESGNKNSVA	HASTRED	QQYHRLPLS	0.51 / 0.19 / 0.19 / 0.13 / 0.31 / 0.36	1/18 (2.88)
KLSQSWLYDSRNKNSVA	NASTRES	QQYHRLPLS	-0.59 / 0.18 / -0.19 / -0.57 / -0.58 / -0.19	0/18
KSSPSDLYESVNKNSVA	HASTRES	QQYHRLPLS	0.50 / 0.09 / 0.45 / 0.13 / 0.11 / 0.48	1/18 (3.55)
KQSQSVLYESVNKNSVA	DASTRQS	QQYHRLPLS	-0.10 / -0.21 / -0.07 / -0.12 / -0.20 / 0.09	0/18
KSSWSVLQESNNKNSVA	HASTRED	QQYHRLPLS	0.41 / -0.01 / 0.13 / 0.42 / 0.32 / 0.32	0/18
KSSQAYLYESRNKNSVA	GASTRES	QQYHRLPLS	0.45 / 0.22 / 0.19 / 0.85 / 0.18 / 0.25	0/18
KVSQSVLYESRVKNSVA	DASTRCS	QQYHRLPLS	-0.01 / -0.14 / -0.09 / -0.16 / -0.09 / 0.06	3/18 (3.02)
KSPQSVLYESRNKNSVA	NASTRED	QSYHRLPLS	0.42 / 0.25 / 0.11 / 0.25 / 0.49 / 0.43	1/18 (2.61)
KSSQSFLYESRVKNSVA	GASQRES	QQYHRLPLS	0.48 / 0.56 / 0.49 / 0.64 / 0.41 / 0.70	1/18 (3.34)
KQSESVLYESRNKNSVA	MASTRES	QQYHRLPLS	0.02 / 0.52 / 0.09 / 0.05 / 1.50 / 0.75	0/18
KFLQSQEYESRNKNSVA	HASTRED	QQYHCLPLS	0.92 / 0.63 / 1.18 / 0.36 / 0.67 / 1.03	4/18 (2.80)
KLANSTLYESRQPNSVA	WASTRES	QQYHRLPLS	1.19 / 0.77 / 0.62 / 0.84 / 0.75 / 1.52	2/18 (2.94)
KLNQSVLYESRNKNSVA	HASTRED	QQYHRLPLS	0.15 / 0.10 / -0.15 / 0.08 / -0.12 / 0.15	0/18
KSSQSVGFESRNKNSVA	DASTRES	QQYHRLPLS	0.11 / 0.73 / 0.09 / 0.03 / 0.51 / 0.24	0/18
KVSQSVGYESGTKNSVA	NASHRES	QQYHRLPLS	0.87 / 0.93 / 1.39 / 0.97 / 0.79 / 1.15	3/18 (2.11)
KLMQSTLYESRNPNSVA	NASTRES	QQYHRLPLS	0.13 / 0.00 / -0.29 / -0.31 / -0.31 / -0.18	2/18 (2.59)
KSSISYLYESPNKNSVA	NASTRES	QQYHRLPLS	0.19 / -0.13 / -0.03 / -0.04 / 0.02 / 0.12	0/18
KSSISVLYESENKNSVA	EASTRES	QQYHRLPLS	0.29 / 0.13 / -0.05 / -0.12 / -0.20 / -0.01	1/18 (2.48)
KLDQGVLYESRNKNSVA	GASTRES	QQYHRLPLS	-0.30 / -0.18 / -0.33 / -0.43 / -0.31 / -0.20	3/18 (2.41)
KSEQGVLYESRVKNSVA	GASTRES	QQYHRLPLS	0.33 / 0.02 / 0.24 / 0.34 / 0.05 / 0.36	1/18 (1.77)
QLMQSVLYESRNKNSVA	HASLRED	QQYHRLPLS	0.09 / -0.14 / -0.10 / -0.28 / -0.23 / 0.14	0/18
KCLQSVLYESRNKNSVA	EASTRED	QQYHRLPLS	-0.03 / -0.09 / -0.12 / -0.28 / -0.22 / -0.14	1/18 (1.89)
KLRQQTLYESRNKNSVA	MASQREE	QQYHRLPLS	0.35 / 0.27 / 0.13 / 0.07 / 0.09 / 0.28	4/18 (3.86)
HQSPSVLYESRNKNSVA	NGSTRES	QQYHRLPLS	1.28 / 1.10 / 1.30 / 1.45 / 1.56 / 1.34	1/18 (3.42)

The last 2 entries again:

CDR-L1	CDR-L2	CDR-L3	replicates, log10 nM	signal with controls
KLRQQTLYESRNKNSVA	MASQREE	QQYHRLPLS	0.35 / 0.27 / 0.13 / 0.07 / 0.09 / 0.28	4/18 (3.86)
HQSPSVLYESRNKNSVA	NGSTRES	QQYHRLPLS	1.28 / 1.10 / 1.30 / 1.45 / 1.56 / 1.34	1/18 (3.42)

Values of this round are not directly comparable with the first-round values of the same sequences.
Of ten entries with the parent sequence, four were seen in most replicates (averages 0.34 to 2.37), three in one and three in none, so single entries are noisy.
The authors' rule: three or more of the six replicates give a measured affinity, fewer mean a poor binder.